This is a sample that favours compounds with a hit; in the whole collection about 1.8% have one here.
UUG fidelity: yeast start codon fidelity modulation | S. cerevisiae UUG-firefly luciferase reporter, luminescence/redox ratio | activity score, % at 18.7 µM | hit rate 0.13% among 350,000 | AID 602363;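 active means replicate mean at a twofold rise or more, about +100% in these data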;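 further: firefly luciferase made from a UUG start codon reports start codon fidelity; reporter light over untreated wells divided by growth signal over untreated wells; some hits fall short of that in this replicate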
RAD52 inh: inhibitors of human RAD52 DNA annealing; P43351; inhibition, % at 18.7 µM; 360,000 compounds, 0.46% hits; recombinant RAD52 DNA annealing, FRET fluorescence;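 active = every replicate showing at least 50% inhibition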
SIRT5 inh: sirtuin-5 (human) deacylase inhibition; AID 652115; 330,000 compounds, 1.1% hits; Purified SirT5, succinyl-peptide AMC, trypsin-coupled fluorescence; inhibition, % at 15 µM; Q9NXA8; in the data active = inhibition above about 15%
AF4-AF9 inh: MLL-AF4/AF9 protein interaction inhibition; P42568; AlphaScreen, biotin-AF4 peptide binding to FLAG-AF9; inhibition, % at 10 µM; 350,000 compounds, 0.47% hits; AID 651704;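 active = every replicate reaching a set inhibition limit, whatever the replicate mean, cut at about 25% in these data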;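 also: 0% = plate neutral control median and 100% = total signal loss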
E-selectin induc: E-selectin induction on HUVECs. P16581. HUVEC E-selectin immunofluorescence imaging; normalized: neutral wells 0, TNF-alpha wells 100. activation, % at 7.58 µM. 260,000 compounds, 0.37% hits. AID 686992;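 active = mean E-selectin-positive cell signal at least 10% of the positive control, reached in at least 60% of replicates, without over 20% cell loss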
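Test system: HUVEC; input: 3,000 HUVEC/well; measured by: immunofluorescence imaging; read-out: % PE-positive cells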
RAD54 branch: inhibitors of human RAD54 branch migration | AID 602329 | inhibition, % at 10.4 µM | 360,000 compounds, 0.14% hits | Q92698 | RAD54 Holliday junction branch migration, FAM/BHQ fluorescence;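 active = mean normalized replicate activity at least 40 and at least half of replicates scoring 40 or more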;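 also: 0% = median of neutral control wells and 100% = median of positive control wells; inhibitors cause a drop in the FAM fluorescence signal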
* = called active by the depositor; / = not tested or not shown.

entry | canonical_smiles | UUG fidelity | RAD52 inh | SIRT5 inh
1 | C[C@H]1CN([C@@H](C)CO)S(=O)(=O)c2ccc(C#Cc3ccc(F)cc3)cc2O[C@@H]1CN(C)S(=O)(=O)c1ccc(F)cc1 | -25 | -1 | 24*
2 | C[C@H](CO)N1C[C@H](C)[C@@H](CN(C)S(=O)(=O)c2ccc(F)cc2)Oc2cc(C#Cc3ccc(F)cc3)ccc2S1(=O)=O | -30 | 17 | 23*
3 | C[C@H](CO)N1C[C@H](C)[C@H](CN(C)S(=O)(=O)c2ccc(F)cc2)Oc2cc(C#Cc3ccncc3)ccc2S1(=O)=O | -12 | -104 | 0
4 | C[C@H]1CN([C@@H](C)CO)S(=O)(=O)c2ccc(C#Cc3ccc(F)cc3)cc2O[C@H]1CN(C)S(=O)(=O)c1ccc(F)cc1 | -26 | 17 | 29*
5 | Cc1ccc(S(=O)(=O)N(C)C[C@H]2Oc3cc(C#Cc4ccncc4)ccc3S(=O)(=O)N([C@@H](C)CO)C[C@H]2C)cc1 | / | -92 | 18*
6 | C[C@@H]1CN([C@@H](C)CO)C(=O)CCCn2cc(nn2)CO[C@@H]1CN(C)C(=O)c1ccc2ccn(C)c2c1 | / | / | /
7 | COc1ccc(NC(=O)N(C)C[C@@H]2Oc3ncc(C#CCN(C)C)cc3C(=O)N([C@H](C)CO)C[C@H]2C)cc1 | 5 | -10 | -4
8 | Cc1ccc(S(=O)(=O)N[C@H]2CC[C@@H](CCn3cc(-c4cccnc4)nn3)O[C@@H]2CO)cc1 | / | -4 | -2

entry | AF4-AF9 inh | E-selectin induc | RAD54 branch
1 | -2 | 0 | 2
2 | -2 | 0 | -24
3 | -3 | / | 10
4 | -2 | 0 | -6
5 | 1 | / | -2
6 | / | 0 | /
7 | -2 | 0 | -4
8 | -1 | 3 | -7

Following part.
entry | canonical_smiles | UUG fidelity | RAD52 inh | SIRT5 inh
9 | COCCNC(=O)C[C@@H]1CC[C@@H]2[C@H](COc3ccc(NC(=O)Nc4ccccc4)cc3C(=O)N2C)O1 | 2 | 2 | -3
10 | C[C@@H]1CN([C@@H](C)CO)S(=O)(=O)c2ccc(C#Cc3ccc(F)cc3)cc2O[C@H]1CN(C)S(=O)(=O)c1ccc(F)cc1 | -21 | 24 | 23*
11 | C[C@@H]1CN([C@@H](C)CO)S(=O)(=O)c2ccc(C#Cc3ccc(F)cc3)cc2O[C@@H]1CN(C)S(=O)(=O)c1ccc(F)cc1 | -39 | 15 | 26*
12 | C[C@@H]1CN([C@H](C)CO)S(=O)(=O)c2ccc(C#Cc3cccc(F)c3)cc2O[C@@H]1CN(C)S(=O)(=O)c1ccccc1F | -13 | 13 | 18*
13 | C[C@H]1CN([C@@H](C)CO)S(=O)(=O)c2ccc(C#Cc3ccncc3)cc2O[C@@H]1CN(C)S(=O)(=O)c1ccc(F)cc1 | -9 | -54 | -2
14 | COCC(=O)N1[C@H](CO)[C@@H](c2ccccc2)C12CN(C(=O)NC1CCCCC1)C2 | / | -7 | -4
15 | Cc1ccc(S(=O)(=O)Nc2ccc3c(c2)C(=O)N([C@@H](C)CO)C[C@@H](C)[C@@H](CN(C)C(=O)Nc2cccc4ccccc24)OCCCC[C@H](C)O3)cc1 | -1 | -5 | -1
16 | Cc1ccc(S(=O)(=O)Nc2ccc3c(c2)C(=O)N([C@@H](C)CO)C[C@H](C)[C@@H](CN(C)C(=O)Nc2cccc4ccccc24)OCCCC[C@@H](C)O3)cc1 | -18 | 11 | 16*

entry | AF4-AF9 inh | E-selectin induc | RAD54 branch
9 | -1 | 0 | -7
10 | -6 | 1 | 4
11 | -3 | 0 | -2
12 | -2 | -1 | 6
13 | -1 | / | 3
14 | -2 | 0 | /
15 | 1 | 1 | -5
16 | 3 | 0 | 4

Results in E-selectin induc (2 entries from above):
| nr | canonical_smiles | E-selectin induc |
| --- | --- | --- |
| 10 | C[C@@H]1CN([C@@H](C)CO)S(=O)(=O)c2ccc(C#Cc3ccc(F)cc3)cc2O[C@H]1CN(C)S(=O)(=O)c1ccc(F)cc1 | 1 |
| 9 | COCCNC(=O)C[C@@H]1CC[C@@H]2[C@H](COc3ccc(NC(=O)Nc4ccccc4)cc3C(=O)N2C)O1 | 0 |

The results go on:
entry | canonical_smiles | UUG fidelity | RAD52 inh | SIRT5 inh
17 | Cc1ccc(S(=O)(=O)Nc2ccc3c(c2)C(=O)N([C@@H](C)CO)C[C@H](C)[C@@H](CN(C)C(=O)Nc2cccc4ccccc24)OCCCC[C@H](C)O3)cc1 | -1 | 4 | 16*
18 | CC1=NN(c2ccccc2)C(=O)C1/C=C1/NC(=S)NC1=O (stereo not given) | -10 | -36 | -3
19 | CC1=NN(c2ccccc2)C(=O)C1C=Nc1ccc(N(C)C)cc1 (stereo not given) | -8 | -17 | -5
20 | COc1ccc(CN(C)C[C@@H]2Oc3ccc(NC(=O)C4CC4)cc3CC(=O)N([C@@H](C)CO)C[C@H]2C)cc1 | / | 4 | /
21 | CCCNC(=O)N1[C@H](CO)[C@H](c2ccccc2)[C@@H]1CNC(=O)c1ccc(F)cc1 | 3 | / | /
22 | COc1ccc(-c2ccccc2[C@@H]2[C@@H](CO)N(C(=O)NC(C)C)[C@H]2C#N)cc1 | / | -7 | -1

entry | AF4-AF9 inh | E-selectin induc | RAD54 branch
17 | -3 | 0 | 3
18 | 2 | / | -1
19 | 31* | / | -5
20 | -10 | -1 | /
21 | / | 0 | 0
22 | -2 | 0 | /

Screens as filed in PubChem BioAssay.
